Source: patent US20090036364A1

Target: GIP receptor
Experiment: GIP receptor binding assay (RBA), format not described

Substance	GIP RBA
0601GIP3794, (D-Ala2)GIP(1-30)-… amide form (peptide)	3.8 nM
0601GIP4285, [dAla2, Leu14, Ala18, glu21] GIP-(1-30)-Exendin-4 (31-39) (peptide)	0.58 nM
0601GIP4252, [dAla2]GIP-(1-30)-[Octylglycine 34] Exendin-4 (31-39) (peptide)	5.6 nM
0601GIP4178, octylglycine-GIP(1-30)-Exendin-4-(31-39) (peptide)	1.5 nM
